Earlier results in US20200306244A1, “WNT INHIBITORS FOR USE IN THE TREATMENT OF FIBROSIS” (NOVARTIS AG, priority 2016, published 2020).

Sequences of proteins named here, by UniProt entry; tags and fusion partners are left off. Residues count along the entry.
UniProt Q13705, 19-512: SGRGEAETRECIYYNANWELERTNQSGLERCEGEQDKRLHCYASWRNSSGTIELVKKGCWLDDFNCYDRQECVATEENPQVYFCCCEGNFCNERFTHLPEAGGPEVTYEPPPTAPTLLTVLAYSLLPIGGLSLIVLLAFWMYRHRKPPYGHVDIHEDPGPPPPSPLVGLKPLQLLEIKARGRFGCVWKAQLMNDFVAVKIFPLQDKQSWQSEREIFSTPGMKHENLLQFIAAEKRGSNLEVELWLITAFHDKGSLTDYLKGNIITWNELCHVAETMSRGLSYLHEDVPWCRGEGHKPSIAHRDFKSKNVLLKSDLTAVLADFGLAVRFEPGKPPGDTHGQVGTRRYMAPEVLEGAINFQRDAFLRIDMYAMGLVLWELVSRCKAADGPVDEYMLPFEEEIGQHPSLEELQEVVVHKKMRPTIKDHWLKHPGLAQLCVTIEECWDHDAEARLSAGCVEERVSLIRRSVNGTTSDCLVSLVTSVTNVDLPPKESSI
UniProt P27037, 20-513: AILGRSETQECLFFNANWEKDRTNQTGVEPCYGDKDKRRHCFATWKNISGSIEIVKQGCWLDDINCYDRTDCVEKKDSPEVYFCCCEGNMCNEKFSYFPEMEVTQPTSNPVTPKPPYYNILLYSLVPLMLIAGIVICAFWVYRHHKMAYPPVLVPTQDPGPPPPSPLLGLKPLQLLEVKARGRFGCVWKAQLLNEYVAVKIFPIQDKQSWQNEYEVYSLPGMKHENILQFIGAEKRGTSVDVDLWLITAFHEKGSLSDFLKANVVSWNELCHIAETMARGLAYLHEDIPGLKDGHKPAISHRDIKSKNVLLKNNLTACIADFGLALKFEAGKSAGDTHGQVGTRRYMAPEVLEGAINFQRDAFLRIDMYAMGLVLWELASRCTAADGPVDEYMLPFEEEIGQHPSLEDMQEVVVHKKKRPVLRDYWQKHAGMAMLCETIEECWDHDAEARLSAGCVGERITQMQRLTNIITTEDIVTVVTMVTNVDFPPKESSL

Key:
human ActRIIB = human ActRIIB (Homo sapiens, UniProt Q13705); settings: cited from earlier work
human ActRIIA = human ActRIIA (Homo sapiens, UniProt P27037); settings: cited from earlier work

For “Bimagrumab: fully human monoclonal antibody (modified IgG1) binding the ligand binding domain of activin receptor type II (ActRII)”, the Kd (human ActRIIB) is listed as 0.0017 ± 0.0003 nM and the Kd (human ActRIIA) is listed as 0.434 ± 0.025 nM.
